Literature values in patent US7378418B2, “Azabicyclic heterocycles as cannabinoid receptor modulators” (Bristol-Myers Squibb Company, priority 2003, dated 2008).

Settings: chronic administration for two weeks (Hildebrandt et al. 2003)

Compound: Cc1c(C(=O)NN2CCCCC2)nn(-c2ccc(Cl)cc2Cl)c1-c1ccc(I)cc1 [AM-251]
- adipose tissue mass: decreased adipose tissue mass
